Columns and labels:
[1] = system: nine recombinant Mab enzymes (PbpB, DacB2, Ldt4, LpqF, MAB_0330, MAB_2833, MAB_4299c, MAB_4800, MAB_3998); test: β-lactam competition of ABP labeling, recombinant enzymes; format: binding, Mycobacterium abscessus; conditions: drug 500 μM, 30 min 37 °C, then 10 μM Mero-sCy5 or Bocillin FL
[2] = system: MAB_4299c; test: β-lactam competition of ABP labeling, recombinant enzyme; format: binding, Mycobacterium abscessus; conditions: drug 500 μM, 30 min 37 °C, then 10 μM Mero-sCy5 or Bocillin FL
[3] = system: nine recombinant Mab enzymes (PbpB, DacB2, Ldt4, LpqF, MAB_0330, MAB_2833, MAB_4299c, MAB_4800, MAB_3998); test: β-lactamase activity, endpoint nitrocefin hydrolysis; format: biochemical, Mycobacterium abscessus; conditions: 8 μM protein, 200 μM nitrocefin, 2 h, 37 °C; p < 0.05 vs buffer

Compound | inhibition of fluorescent ABP binding, all nine proteins [1] | also measured
NC(=O)[C@@H]1CC[C@@H]2CN1C(=O)N2OS(=O)(=O)O [AVI, avibactam] | mostly had no effect | 
CO[C@@]1(NC(=O)Cc2cccs2)C(=O)N2C(C(=O)O)=C(COC(N)=O)CS[C@@H]21 [FOX, cefoxitin] |  | inhibition of fluorescent ABP binding to MAB_4299c [2]: did not inhibit
C[C@@H](O)[C@H]1C(=O)N2C(C(=O)O)=C(SCCN=CN)C[C@H]12 [IPM, imipenem] | inhibited | 
O=C(Cc1cccs1)N[C@@H]1C(=O)N2C(C(=O)O)=C(/C=C/c3ccc([N+](=O)[O-])cc3[N+](=O)[O-])CS[C@H]12 [nitrocefin] |  | nitrocefin hydrolysis, endpoint [3]: nitrocefin hydrolysis above buffer-only control

— paper PMC13162264, “Chemoproteomic Elucidation of β‑Lactam Drug Targets in Mycobacterium abscessus” (ACS Infectious Diseases, 2026)
